# Data: patent US6417178B1, “Amyloid binding nitrogen-linked compounds for the antemortem diagnosis of alzheimer's disease, in vivo imaging and prevention of amyloid deposits” (University of Pittsburgh, priority 1994, dated 2002)
# Experiments:
# [1] = female, Swiss-Webster, mouse, in vivo, iv, 15 min
# [2] = system: control brain homogenates; experiment: [14C]CG binding to control brain homogenates; set-up: species or system human; settings: average CBR ±SEM
# [3] = system: AD brain homogenates; experiment: [14C]CG binding to AD brain homogenates; settings: average CBR ±SEM, high- and low-plaque AD brains combined
smiles,measurement,setting,value
"O=C(O)c1cc(N=Nc2ccc(-c3ccc(N=Nc4ccc(O)c(C(=O)O)c4)cc3)cc2)ccc1O [Chrysamine G, 4,4′-bis(3-carboxy-4-hydroxyphenylazo)-biphenyl]",brain/kidney ratio,[1],~0.5
same,"total binding as a ratio to cerebellum, Control (CBR)",[2]; Frontal Pole,0.87 ± .04 (n = 6)
same,"total binding as a ratio to cerebellum, Control (CBR)",[2]; Head of Caudate,0.95 ± .04 (n = 4)
same,"total binding as a ratio to cerebellum, Control (CBR)",[2]; Inferior Parietal,0.90 ± .08 (n = 8)
same,"total binding as a ratio to cerebellum, Control (CBR)",[2]; Occipital,0.77 ± .13 (n = 8)
same,"total binding as a ratio to cerebellum, Control (CBR)",[2]; Superior Temporal,0.86 ± .08 (n = 8)
same,"total binding as a ratio to cerebellum, Control (CBR)",[2]; Superior/Middle Frontal,0.73 ± .02 (n = 8)
same,"total binding as a ratio to cerebellum, AD (CBR)",[3]; Frontal Pole,1.87 ± .25 (n = 10)
same,"total binding as a ratio to cerebellum, AD (CBR)",[3]; Head of Caudate,1.76 ± .31 (n = 7)
same,"total binding as a ratio to cerebellum, AD (CBR)",[3]; Inferior Parietal,1.93 ± .20 (n = 11)
same,"total binding as a ratio to cerebellum, AD (CBR)",[3]; Occipital,1.44 ± .20 (n = 11)
same,"total binding as a ratio to cerebellum, AD (CBR)",[3]; Superior Temporal,1.63 ± .17 (n = 11)
same,"total binding as a ratio to cerebellum, AD (CBR)",[3]; Superior/Middle Frontal,1.84 ± .18 (n = 11)
